Data: US20090263381A1, “COMBINATION OF DEHYDROEPIANDROSTERONE OR DEHYDROEPIANDROSTERONE-SULFATE WITH AN ANTI-IGE ANTIBODY FOR TREATMENT OF ASTHMA OR CHRONIC OBSTRUCTIVE PULMONARY DISEASE” (priority 2003, published 2009)

Key:
[1] = room temperature (24-25° C.); slope of solubility versus reciprocal sodium cation concentration
[2] = 10 mg/mL in 0.12% NaCl, RT (24-26° C.)

Substance: sodium dehydroepiandrostenone sulfate [DHEA-S]
- equilibrium constant Ksp [1]: 2236 mM^2
- appearance of solution on storage [2]: slight precipitate is observed on the third day
